Chains of the proteins cited; added tags and fusions are not shown. Residues count along the entry.
UniProt Q9Y233, 267-1055: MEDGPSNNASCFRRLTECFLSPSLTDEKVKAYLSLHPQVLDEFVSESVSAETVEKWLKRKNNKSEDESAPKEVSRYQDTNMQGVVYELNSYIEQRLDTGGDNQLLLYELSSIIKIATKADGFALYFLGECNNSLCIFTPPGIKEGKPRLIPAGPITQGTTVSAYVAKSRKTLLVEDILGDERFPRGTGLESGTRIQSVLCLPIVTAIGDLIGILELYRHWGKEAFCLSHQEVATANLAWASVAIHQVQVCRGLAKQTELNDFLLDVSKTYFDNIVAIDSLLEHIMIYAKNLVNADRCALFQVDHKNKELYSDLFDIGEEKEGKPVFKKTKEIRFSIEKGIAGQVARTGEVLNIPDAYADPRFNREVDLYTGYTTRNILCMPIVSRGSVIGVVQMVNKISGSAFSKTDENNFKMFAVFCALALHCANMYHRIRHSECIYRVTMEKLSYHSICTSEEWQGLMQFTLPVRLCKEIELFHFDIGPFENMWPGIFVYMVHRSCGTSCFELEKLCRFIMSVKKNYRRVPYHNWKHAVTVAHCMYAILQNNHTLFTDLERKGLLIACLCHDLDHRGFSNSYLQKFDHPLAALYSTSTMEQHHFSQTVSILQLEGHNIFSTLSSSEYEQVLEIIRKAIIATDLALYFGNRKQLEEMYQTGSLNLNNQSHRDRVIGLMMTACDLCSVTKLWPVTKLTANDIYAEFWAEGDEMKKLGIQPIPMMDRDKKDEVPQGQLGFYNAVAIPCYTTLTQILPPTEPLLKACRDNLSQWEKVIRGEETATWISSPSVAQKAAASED

In patent US9663513B2, “Pyrimidine PDE10 inhibitors” (Merck Sharp & Dohme Corp., priority 2012, dated 2017):

The molecules below were run against human PDE10A2 (Homo sapiens (Human), UniProt Q9Y233) (assay: PDE10 fluorescence polarization (IMAP FP) inhibition assay). Conditions: human PDE10A2 from transfected AD293 cells; FAM-labeled cAMP 50 nM; apparent inhibition constant; read-out: PDE10A Ki.
Type: biochemical
Method: The activity of the compounds in accordance with the present invention as PDE10 inhibitors may be readily determined without undue experimentation using a fluorescence polarization (FP) methodology that is well known in the art (Huang, W., et al., J. Biomol Screen, 2002, 7: 215).
In a typical experiment the PDE10 inhibitory activity of the compounds of the present invention was determined in accordance with the following experimental method. PDE10A2 was amplified from human fetal brain cDNA (Clontech, Mountain View, Calif.) using a forward primer corresponding to nucleotides 56-77 of human PDE10A2 (Accession No. AF127480, Genbank Identifier 4894716), containing a Kozak consensus sequence, and a reverse primer corresponding to nucleotides 2406-2413 of human PDE10A2 (Accession No. AF127480, Genbank Identifier 4894716). Amplification with Easy-A polymerase (Stratagene, La Jolla, Calif.) was 95° C. for 2 minutes followed by thirty three cycles of 95° C. for 40 seconds, 55° C. for 30 seconds, and 72° C. for 2 minutes 48 seconds. Final extension was 72° C. for 7 minutes. The PCR product was TA cloned into pcDNA3.2-TOPO (Invitrogen, Carlsbad, Calif.) according to standard protocol. AD293 cells with 70-80% confluency were transiently transfected with human PDE10A2/pcDNA3.2-TOPO using Lipofectamine 2000 according to manufacturer specifications (Invitrogen, Carlsbad, Calif.). Cells were harvested 48 hours post-transfection and lysed by sonication (setting 3, 10×5 sec pulses) in a buffer containing 20 mM HEPES, 1 mM EDTA and protease inhibitor cocktail (Roche). Lysate was collected by centrifugation at 75,000×g for 20 minutes. Supernatant containing the cytoplasmic fraction was used for evaluation of PDE10A2 activity. The fluorescence polarization assay for cyclic nucleotide phosphodiesterases was performed using an IMAP® FP kit supplied by Molecular Devices, Sunnyvale, Calif. (product # R8139). IMAP® technology has been applied previously to phosphodiesterase assays (Huang, W., et al., J. Biomol Screen, 2002, 7: 215). Assays were performed at room temperature in 384-well microtiter plates with an incubation volume of 20.2 μL. Solutions of test compounds were prepared in DMSO and serially diluted with DMSO to yield 8 μL of each of 10 solutions differing by 3-fold in concentration, at 32 serial dilutions per plate. 100% inhibition is determined using a known PDE10 inhibitor, which can be any compound that is present at 5,000 times its Ki value in the assay described as follows, such as papaverine (see Siuciak, et al. Neuropharmacology (2006) 51:386-396; Becker, et al. Behav Brain Res (2008) 186(2):155-60; Threlfell, et al., J Pharmacol Exp Ther (2009) 328(3):785-795), 2-{4-[pyridin-4-yl-1-(2,2,2-trifluoroethyl)-1H-pyrazol-3-yl]phenoxymethyl}quinoline succinic acid or 2-[4-(1-methyl-4-pyridin-4-yl-1H-pyrazol-3-yl)-phenoxymethyl]quinoline succinic acid (see Schmidt, et al. J Pharmacol Exp Ther (2008) 325:681-690; Threlfell, et al., J Pharmacol Exp Ther (2009) 328(3): 785-795). 0% of inhibition is determined by using DMSO (1% final concentrations).
A Labcyte Echo 555 (Labcyte, Sunnyvale, Calif.) is used to dispense 200 nL from each well of the titration plate to the 384 well assay plate. A solution of enzyme (1/1600 dilution from aliquots; sufficient to produce 20% substrate conversion) and a separate solution of FAM-labeled cAMP PDE from Molecular Devices (product # R7506), at a final concentration of 50 nM are made in the assay buffer (10 mM Tris HCl, pH 7.2, 10 mM MgCl2, 0.05% NaN3 0.01% Tween-20, and 1 mM DTT). The enzyme and the substrate are then added to the assay plates in two consecutive additions of 10 μL, and then shaken to mix. The reaction is allowed to proceed at room temperature for 30 minutes. A binding solution is then made from the kit components, comprised of 80% Solution A, 20% Solution B and binding reagent at a volume of 1/600 the total binding solution.
In the case of COc1ccc([C@H]2C[C@@H]2COc2nc(C)ncc2-c2ccc(C(O)C(F)F)nc2)nc1 (single isomer, unassigned) [Example 67], the Ki is reported as 0.1 nM. Cc1ncc(-c2cncnc2)c(OC[C@H]2C[C@@H]2c2ccc3ccccc3n2)n1 (single isomer, unassigned) [Example 44] was tested, and the Ki was 2.2 nM. For COc1ccc([C@H]2C[C@@H]2COc2nc(C)ncc2[C@H]2CC[C@@H](C(N)=O)CC2)nc1 [Example 218, cis-4-(4-(((1S,2S)-2-(5-Methoxypyridin-2-yl)cyclopropyl)methoxy)-2-methylpyrimidin-5-yl)cyclohexanecarboxamide], the Ki was 0.5 nM. With Cc1ncc(-c2cn(C)nc2C(C)O)c(OC[C@H]2C[C@@H]2c2ccccn2)n1 (single isomer, unassigned) [Example 168] the Ki was 1.56 nM. Cc1ncc(-c2ccc(C#N)cc2)c(OC[C@H]2C[C@@H]2c2ccc3ccccc3n2)n1 (single isomer, unassigned) [Example 33] gave a Ki of 1.25 nM. Molecule Cc1ccc(-c2cnc(C)nc2OC[C@H]2C[C@@H]2c2ccc3ccccc3n2)cc1 (single isomer, unassigned) [Example 24] has a Ki of 0.35 nM. For Cc1ncc(-c2cn(C)nc2C(C)O)c(OC[C@@H]2C[C@H]2c2ccc3c(n2)CCC3)n1 (single isomer, unassigned) [Example 166], the Ki was 8.11 nM. In the case of Cc1ncc(-c2cn(C)nc2C(C)O)c(OC[C@@H]2C[C@H]2c2ccc3c(n2)CCC3)n1 (single isomer, unassigned) [Example 165], the Ki is reported as 0.05 nM. With Cc1cccc(-c2cnc(C)nc2OC[C@H]2C[C@@H]2c2ccc3ccccc3n2)c1 (single isomer, unassigned) [Example 36] the Ki was 0.09 nM. With Cc1ncc(-c2cncnc2)c(OC[C@H]2C[C@@H]2c2ccc3ccccc3n2)n1 (single isomer, unassigned) [Example 43] the Ki was 0.08 nM. With COc1ccc([C@H]2C[C@@H]2COc2nc(C)ncc2-c2ccc(C(O)C(F)(F)F)nc2)nc1 (single isomer, unassigned) [Example 84] the Ki was 0.51 nM. Work on Cc1ncc(-c2cn(C)nc2C(C)O)c(OC[C@H]2C[C@@H]2c2ccccn2)n1 (single isomer, unassigned) [Example 169] yielded a Ki of 1.41 nM. In the case of Cc1ncc(-c2cn(C)nc2C(C)O)c(OC[C@@H]2C[C@H]2c2ccc3c(n2)CCC3)n1 (single isomer, unassigned) [Example 164], the Ki is reported as 0.04 nM. COc1ccc([C@H]2C[C@@H]2COc2nc(C)ncc2-c2ccc(C(O)C(F)(F)F)nc2)nc1 (single isomer, unassigned) [Example 83] gave a Ki of 0.15 nM. Cc1ncc(-c2ccc(C(=O)O)cc2)c(OC[C@H]2C[C@@H]2c2ccc3ccccc3n2)n1 (single isomer, unassigned) [Example 22] gave a Ki of 0.01 nM. Molecule Cc1ncc(-c2cn(C)nc2C(C)O)c(OC[C@@H]2C[C@H]2c2ccc3c(n2)CCC3)n1 (single isomer, unassigned) [Example 167] has a Ki of 5.44 nM. With COc1ccc([C@H]2C[C@@H]2COc2nc(C)ncc2-c2ccc(C(O)C(F)F)nc2)nc1 (single isomer, unassigned) [Example 68] the Ki was 0.43 nM. For Cc1cccc(-c2cnc(C)nc2OC[C@H]2C[C@@H]2c2ccc3ccccc3n2)c1 (single isomer, unassigned) [Example 37], the Ki was 7.24 nM. Molecule Cc1ncc(-c2ccc(C(=O)O)cc2)c(OC[C@H]2C[C@@H]2c2ccc3ccccc3n2)n1 (single isomer, unassigned) [Example 23] has a Ki of 1.21 nM. With Cc1ncc(-c2ccc(C#N)cc2)c(OC[C@H]2C[C@@H]2c2ccc3ccccc3n2)n1 (single isomer, unassigned) [Example 32] the Ki was 0.06 nM. With COc1ccc([C@H]2C[C@@H]2COc2nc(C)ncc2[C@H]2CC[C@H](C(C)(C)O)CC2)nc1 [Example 220, (trans) 2-(4-(4-(((1S,2S)-2-(5-methoxypyridin-2-yl)cyclopropyl)methoxy)-2-methylpyrimidin-5-yl)cyclohexyl)propan-2-ol] the Ki was 0.64 nM. Molecule COc1ccc([C@H]2C[C@@H]2COc2nc(C)ncc2[C@H]2CC[C@H](C(N)=O)CC2)nc1 [Example 219, trans-4-(4-(((1S,2S)-2-(5-Methoxypyridin-2-yl)cyclopropyl)methoxy)-2-methylpyrimidin-5-yl)cyclohexanecarboxamide] has a Ki of 0.65 nM. Cc1ccc(-c2cnc(C)nc2OC[C@H]2C[C@@H]2c2ccc3ccccc3n2)cc1 (single isomer, unassigned) [Example 25] gave a Ki of 7.23 nM.
